{"sequences": {"note": "By UniProt entry, the sequences of proteins in these tests, tags left out.", "UniProt P08173, whole entry": "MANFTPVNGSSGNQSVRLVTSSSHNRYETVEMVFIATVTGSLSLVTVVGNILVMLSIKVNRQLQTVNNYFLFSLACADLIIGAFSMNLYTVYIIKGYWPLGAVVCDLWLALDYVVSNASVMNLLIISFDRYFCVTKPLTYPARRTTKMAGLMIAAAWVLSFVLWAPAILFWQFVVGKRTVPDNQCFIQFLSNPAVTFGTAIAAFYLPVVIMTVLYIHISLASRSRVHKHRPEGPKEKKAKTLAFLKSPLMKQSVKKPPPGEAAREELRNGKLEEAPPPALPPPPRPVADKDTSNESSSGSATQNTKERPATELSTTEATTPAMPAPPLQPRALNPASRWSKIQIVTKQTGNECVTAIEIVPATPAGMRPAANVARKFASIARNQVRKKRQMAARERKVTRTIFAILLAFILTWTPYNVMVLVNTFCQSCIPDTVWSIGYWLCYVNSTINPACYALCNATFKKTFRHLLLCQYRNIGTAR"}, "source": "patent US9868746B2", "about": "“Substituted 5-aminothieno[2,3-C]pyridazine-6-carboxamide analogs as positive allosteric modulators of the muscarinic acetylcholine receptor M4” (Vanderbilt University, priority 2012, dated 2018)", "target": "T1, mAChR M4 (Homo sapiens, UniProt P08173)", "T1 construct": "expressed in transfected cells; host or cells: CHO-K1 cells stably transfected with M4 cDNA and chimeric G-protein Gqi5", "assay": "mAChR M4 cell-based functional assay (calcium mobilization, potentiation of EC20 acetylcholine response)", "conditions": ">10,000 estimated for low potency compounds without plateau"}
{"smiles": "Cc1nnc2sc(C(=O)NCc3ccc(S(=O)(=O)C(F)(F)F)cc3)c(N)c2c1C", "note": "[Example B66]", "values": [{"measurement": "EC50", "result": 0.024, "unit": "µM"}]}
